## Antibody variant affinities, Ab-14 heavy chain, assay 1

Data: MIT Lincoln Laboratory AlphaSeq set, Engelhart et al. 2022, doi:10.1038/s41597-022-01779-4, as distributed in FLAb.

The target is the same throughout: PDVDLGDISGINAS, from the HR2 region of SARS-CoV-2 spike.

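Phage display of a naive human antibody library on the peptide gave the parent. AAYL49 was designed without a model: most single CDR substitutions and a random sample of double and triple ones. The scFvs were displayed on barcoded MATa yeast, the peptide on MATalpha yeast. Mating (16 h, 30 °C) was followed by selection of diploids and sequencing of their barcodes. Read counts were normalised to the haploid input and turned into Kd by a linear fit to BCL2-family pairs of known affinity, for each replicate. Each pool was mated in three replicate cultures.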

Ab-14 is the parent antibody, in scFv form: VH, then a 15-residue (Gly4Ser)3 linker, then VL. The light chain is unchanged in all variants.
VH: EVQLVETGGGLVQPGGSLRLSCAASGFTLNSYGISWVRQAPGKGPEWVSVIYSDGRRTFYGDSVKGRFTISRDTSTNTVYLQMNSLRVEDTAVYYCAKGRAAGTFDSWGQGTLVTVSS
VL: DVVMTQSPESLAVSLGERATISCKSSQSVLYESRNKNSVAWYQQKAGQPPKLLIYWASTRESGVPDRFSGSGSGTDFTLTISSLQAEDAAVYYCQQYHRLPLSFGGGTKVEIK

Each variant is given by its three heavy chain CDRs, as the data file delimits them; those of the parent are GFTLNSYGIS, VIYSDGRRTFYGDSVK, GRAAGTFDS. Scale: log10 of Kd in nM, estimated from mating counts; low values are strong binders. "ND" marks a missing value. The strain was present, yet no cells mated with the target were sequenced in that replicate, which points to weak or no binding. In this assay the parent's reference entry averaged 0.65; its copy inside this library read 4.11 (one replicate of three).

CDR-H1	CDR-H2	CDR-H3	replicates, log10 nM	signal with controls
DFTLNSYGIS	VIYSDGRRHFYGDSVQ	GRAAGTFDS	ND / 2.76 / 3.62	2 of 9 (3.57)
NFTLNSYGSS	VIYSDGRRTFYGDSVK	GRAAGTFDS	3.06 / 2.52 / 3.54	3 of 9 (4.40)
GFTLCSYGIS	AIYSDGRRTLYGDSVK	GRAAGTFDS	ND / ND / 3.77	3 of 9 (3.89)
GFTLNSYPIS	VIYSDGRRTFYGDSVK	GRAAGTGDS	ND / 4.01 / ND	2 of 9 (3.92)
GFTLNSYDIS	VIYSDGRRTFYGSSVK	GDAAGTFDS	4.43 / ND / 5.40	1 of 9 (3.94)
GFTHNSYGIS	VIYSSGRRTFYGDMVK	GRAAGTFDS	ND / ND / ND	0 of 9
GFTLQSYGIS	VIYSDGRRTFYGDSVK	GRASGTFDS	4.14 / 4.14 / 4.59	3 of 9 (4.12)
GFTLNRYAIS	VIYSDGRRTFYGDSVK	GWAAGTFDS	1.45 / 1.72 / 1.79	2 of 9 (2.85)
GFTLSSYGIS	VIYSDGRRTFYGDSYK	GRAAGTFDS	ND / ND / ND	1 of 9 (3.17)
GFTLNCYGIS	VIYSDGRRTVYGDSVK	GRAAGTFDS	2.32 / 2.22 / ND	0 of 9
GFTLNSYGIS	VIYSDGRRTFYGDAKK	GRAAGTFDS	ND / ND / ND	1 of 9 (2.79)
GFDLNSYGIS	VIYSDGRRTFYQDSVK	GRAAGLFDS	0.96 / 1.03 / 0.88	0 of 9
GFTLNSYGIS	VIYSDGWRTFYGDSVK	GRRAGTFDS	ND / 1.59 / 3.18	0 of 9
GFTLNSYGIS	VIVSDGRRTFYGDSRK	GRAAGTNDS	5.61 / 4.24 / ND	1 of 9 (3.25)
GFTLNVYGIS	VINWDGRRTFYGDSVK	GRAAGTFDS	ND / 3.14 / 5.20	1 of 9 (2.64)
IFTLNSYGIS	HIYSDGRRTFYGDSVQ	GRAAGTFDS	ND / ND / 5.92	1 of 9 (5.94)
GFTLNSYGIS	VIYSDGRLIFYGDSVK	GRNAGTFDS	ND / 4.15 / 4.93	0 of 9
GFTLNSYGIS	PIYSDGRRTFYGDSVK	GRAAGTFDS	2.63 / ND / ND	0 of 9
NFTLNSYGIS	VTYSDGRRQFYGDSVK	GRAAGTFDS	ND / 4.04 / ND	1 of 9 (4.04)
GFTLNSRGIS	VEYSKGRRTFYGDSVK	GRAAGTFDS	4.65 / ND / 4.63	4 of 9 (4.44)
LFTLNSYGIS	VIYSDGRRDFYGDSVK	GRLAGTFDS	3.39 / 2.75 / ND	1 of 9 (2.69)
GFTLNSYGWS	VIYSDGRRVFYIDSVK	GRAAGTFDS	2.49 / 3.03 / 4.50	2 of 9 (3.47)
GFTLNSYGIA	VIYSDGRRTFYGDSVK	GRWAGTFGS	ND / 4.04 / ND	1 of 9 (4.44)
GFELNSYGIS	VDYSDGRRTFYGDSVK	GRAAGTFDS	ND / 4.67 / 3.40	1 of 9 (3.67)
GFTLNSDGIS	DIYSDGRRTFYGDSVT	GRAAGTFDS	ND / ND / ND	3 of 9 (4.53)
GFTLNSYGIG	VIYSDGRRTFTGSSVK	GRAAGTFDS	6.17 / ND / 4.92	3 of 9 (5.10)
GFAHNSYGIS	VIYSDGGRTFYGDSVK	GRAAGTFDS	ND / ND / ND	0 of 9
GFTLNSYGIS	VIYSDGRRTFYGDSVK	GVAAGTGDS	ND / ND / ND	0 of 9
YFTLNSYGIS	VIYSDGRRTFKGDSVK	ERAAGTFDS	ND / ND / ND	1 of 9 (3.44)
GFTLNSYGIE	VIYSDGRATFAGDSVK	GRAAGTFDS	ND / ND / 4.65	0 of 9
GFTLNSYGIS	IMYSDGRRTFYGDSVK	GRLAGTFDS	1.43 / 1.90 / 1.72	1 of 9 (3.70)
GFTLNSYYIS	VIYSDGRRTFYGDSVK	GRAAGKLDS	ND / 4.01 / ND	1 of 9 (4.04)
GFTLNSYGIN	VRYSDGRRTFYGDSVK	GRAAGGFDS	ND / ND / ND	0 of 9
GFTLNRYSIS	VIYSDGRRTFYGDSVK	GRAAGTFDH	ND / ND / ND	0 of 9
GRTLNSYGIS	VIYSDGRRTFYGDSVK	GRAAGTFDF	ND / ND / ND	0 of 9
GGTLNSYGQS	VIYSDGRRTFYGDSVK	GRAAGCFDS	ND / ND / ND	4 of 9 (4.14)
GMTNNSYGIS	VIYSDGRRTFYGDSVK	GRAAGTFFS	5.94 / 4.17 / ND	1 of 9 (4.08)
GFTLNSSGIS	VIYSDGRRQFYGDSVK	GRAAGRFDS	ND / 5.25 / 5.11	3 of 9 (3.41)
KFTLNSYGIS	VIYSDGWRTFYGDSVK	GRAAGTFDR	2.17 / 3.69 / ND	0 of 9
GFTLEAYGIS	VIYSDGRATFYGDSVK	GRAAGTFDS	ND / ND / ND	0 of 9
GFILNSYGIS	VIYSDGRRTFYGDSVK	GRAAGTFDS	1.33 / 1.26 / 1.13	2 of 9 (4.86)
GFTLNSVGIS	VIYSDGRRTFYGDSVK	FRAAETFDS	ND / 3.51 / 4.52	3 of 9 (4.05)
GFTLNSYGIS	AIYSDGRRTFYGDSVK	GRAEGTFDS	ND / ND / ND	0 of 9
GFTLNSMGIS	VIYSDGRRTFYGCSVK	GRAAGTFGS	ND / ND / 3.84	4 of 9 (4.08)
GNTLNSYGIS	VIYSDGRRTFAGDPVK	GRAAGTFDS	4.11 / 2.86 / ND	0 of 9
GFTLESYGIS	VIYSDGRVTFYGDRVK	GRAAGTFDS	ND / 4.06 / ND	0 of 9
GFTLNSDGIS	VIYSKGRNTFYGDSVK	GRAAGTFDS	4.10 / 4.38 / ND	4 of 9 (4.67)
GFTLNSYGIS	VIYSDGRRQSYGDSVK	GREAGTFDS	2.62 / 1.98 / 2.40	2 of 9 (5.31)
GVQGNSYGIS	VIYSDGRRTFYGDSVK	GRAAGTFDS	ND / ND / 4.48	1 of 9 (4.49)
IFTLSSYGIS	VIYSDGRRTFYGDPVK	GRAAGTFDS	ND / 3.15 / ND	1 of 9 (4.53)

The first 4 entries again:

CDR-H1	CDR-H2	CDR-H3	replicates, log10 nM	signal with controls
DFTLNSYGIS	VIYSDGRRHFYGDSVQ	GRAAGTFDS	ND / 2.76 / 3.62	2 of 9 (3.57)
NFTLNSYGSS	VIYSDGRRTFYGDSVK	GRAAGTFDS	3.06 / 2.52 / 3.54	3 of 9 (4.40)
GFTLCSYGIS	AIYSDGRRTLYGDSVK	GRAAGTFDS	ND / ND / 3.77	3 of 9 (3.89)
GFTLNSYPIS	VIYSDGRRTFYGDSVK	GRAAGTGDS	ND / 4.01 / ND	2 of 9 (3.92)

Background: pairings of library AAYL49 with three empty control strains gave a value in 15% of cases (median 4.06, 5th percentile 2.83). Values in that range, when seen in few replicates, are hard to tell from nonspecific mating. Also given: how often the same scFv was detected with the empty control strains, with their mean in brackets.